The conditions of data set [1]: water, ethanol, ethanol-water and other common solvents.
Data set [2] has as its system animal model with heart failure (ligation of left anterior descending coronary artery). Nature of the data set: anti-heart failure activity (long term, chronic) in animal model (rat). The format is in vivo.
The nature of data set [3]: Flowability (angle of repose, bulk density). As to conditions: samples crushed to particle size distribution similar to LCZ696. The format is physicochemical.
Data set [4] relates to animal model with heart failure (ligation of left anterior descending coronary artery). Nature of the data set: anti-heart failure activity (short term, acute) in animal model (rat). It is filed as in vivo. Particulars: for mAP / mLVP: 7 days before and 3 days after ligation, measured Day 11; for improvement effect on mAP and mLVP / effect on lowering blood pressure compared with untreated animal group: short-term administration, rat. The procedure:
The animal model with heart failure using ligation of left anterior descending coronary artery was prepared, the therapeutic drug to the modeling animal was administrated by pre-gavage, once per day for 7 continuous days, and was continuously administrated for three days after successful modeling.
SD male rats aged 6-week old;
Pre-test preparation: All animals were divided into 5 groups by randomized blocks, 6 rats in each group, and the animals were acclimated for 3 days before test treatment; Experimental process: Therapeutic drug was given to the test animals by pre-gavage, once per day for 7 continuous days. Operation was conducted on Day 8, the animals were anesthetized, trachea was connected to a respirator, electrocardiograph (ECG) was connected for real-time recording, thoracic cavity was opened between the 3rd and 4th ribs, left anterior descending coronary artery was ligated, ST segment elevation of ECG indicated successful ligation, the thoracic cavity was closed, and the skin was sutured;
The animals were anesthetized on Day 11, ECG was measured, and then arterial pressure and left ventricular pressure were measured by carotid artery intubation.

The nature of data set [5]: Hygroscopicity (plain sample) at RH 75% and RH 85%. Particulars: Day 0, plain sample. The format is physicochemical.
For data set [6] the following is noted: 40° C., 75% RH, with package.
[7] abbreviates: 22 mg/kg (compound group 1) gavage once per day for 4 weeks.
[8] abbreviates: 67 mg/kg (compound group 2) gavage once per day for 4 weeks.
The mark [9] stands for this setting: 22 mg/kg (compound group 1) gavage once per day.
Where [10] appears, read: 67 mg/kg (compound group 2) gavage once per day.

With “(EXP3174.AHU377)^3−.1.5Ca^2+.2.5H2O [Example 2]”, the “solubility property compared with EXP3174” value in data set [1] is listed as “significantly improved”. Moreover, in data set [2] (setting [7]), the Ejection fraction came out at 66.6%, the Heart rate was 414.9 beats/min, the Myocardial fibrosis was 7.56% and the “Thickness of heart wall” value was 0.178 cm. For the same compound, in data set [2] (setting [8]), the Ejection fraction worked out at 65.9%, the Heart rate is 423.2 beats/min, the Myocardial fibrosis was determined as 4.22% and the “Thickness of heart wall” value came out at 0.164 cm. In data set [3], the Angle of repose amounted to 44.79 ° and the Bulk density came to 0.641 g/mL. Moreover, in data set [4] (setting [9]), the mAP is 85 mmHg and the mLVP came to 53 mmHg. For the same compound, in data set [4] (setting [10]), the mAP worked out at 78 mmHg and the mLVP was 43 mmHg. In data set [4], the “improvement effect on mAP and mLVP / effect on lowering blood pressure compared with untreated animal group” value is recorded as “significant”. In data set [5], the “water content, RH 75% Day 0” value came out at 4.9% and the “water content, RH 85% Day 0” value was determined as 4.9%. Also, in data set [6], the “Accelerated stability data, Day 0” value stood at 99.85%; the “Accelerated stability data, Day 30” value was 99.79%; the “Accelerated stability data, Day 180” value stood at 99.84%.

As to `CCCCC(=O)N(Cc1ccc(-c2ccccc2-c2nnn[n-]2)cc1)[C@H](C(=O)[O-])C(C)C.CCOC(=O)[C@H](C)C[C@@H](Cc1ccc(-c2ccccc2)cc1)NC(=O)CCC(=O)[O-].O.[Na+].[Na+].[Na+]` [LCZ696, reference compound], the “Thickness of heart wall” value in data set [2] (68 mg/kg gavage once per day for 4 weeks) came out at 0.169 cm.

Consider “(EXP3174.AHU377)^3−.1.5Ca^2+.2H2O [Example 3]”, for which the “solubility property compared with EXP3174” value in data set [1] is reported as “significantly improved”. For the same compound, in data set [2] (setting [7]), the Ejection fraction is reported as 65.3%, the Heart rate was 417.3 beats/min, the Myocardial fibrosis is 7.37% and the “Thickness of heart wall” value worked out at 0.181 cm. Also, in data set [2] (setting [8]), the Ejection fraction is recorded as 66.8%, the Heart rate is given as 422.5 beats/min, the Myocardial fibrosis was 4.17% and the “Thickness of heart wall” value came to 0.169 cm. In addition, in data set [3], the Angle of repose was determined as 43.64 ° and the Bulk density is 0.630 g/mL. In addition, in data set [4] (setting [9]), the mAP was determined as 87 mmHg and the mLVP is recorded as 52 mmHg. In data set [4] (setting [10]), the mAP amounted to 75 mmHg and the mLVP stood at 45 mmHg. The “improvement effect on mAP and mLVP / effect on lowering blood pressure compared with untreated animal group” value in data set [4] is on record as “significant”. In data set [5], the “water content, RH 75% Day 0” value was 3.83% and the “water content, RH 85% Day 0” value was 3.83%. Also, in data set [6], the “Accelerated stability data, Day 0” value came out at 99.91%; the “Accelerated stability data, Day 30” value came out at 99.94%; the “Accelerated stability data, Day 180” value worked out at 99.90%.

The values above are taken from US11026925B2, “Angiotensin II receptor antagonist metabolite and NEP inhibitor composite and preparation method thereof” (SHENZHEN SALUBRIS PHARMACEUTICALS CO. LTD, priority 2016, dated 2021).
